Source: paper PMC4430358 (Bioorganic & medicinal chemistry letters, 2015)

Amino acid sequences for entries named in this document (tags omitted).
UniProt P25025, whole entry: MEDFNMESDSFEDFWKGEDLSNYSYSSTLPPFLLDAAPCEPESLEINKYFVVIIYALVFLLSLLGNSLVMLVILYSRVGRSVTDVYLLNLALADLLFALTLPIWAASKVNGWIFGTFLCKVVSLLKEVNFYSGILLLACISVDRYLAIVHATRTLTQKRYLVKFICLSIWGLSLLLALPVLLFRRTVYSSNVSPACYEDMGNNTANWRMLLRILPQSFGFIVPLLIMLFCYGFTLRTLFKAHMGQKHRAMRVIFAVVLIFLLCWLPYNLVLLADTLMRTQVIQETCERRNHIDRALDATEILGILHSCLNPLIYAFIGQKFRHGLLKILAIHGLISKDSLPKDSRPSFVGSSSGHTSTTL

Target: CXCR2 (Homo sapiens, UniProt P25025)
Assay: PathHunter β-arrestin assay
Type: cell-based
Conditions: read-out: CXCR2 PathHunter cell line IC50 β-arrestin; IL8 used as agonist; quadruplicate, mean ± SE

**Q.** With O=C(Nc1ccc([N+](=O)[O-])cc1O)Nc1ccccc1Br [SB225002, reference compound] as the compound, how does the IC50 read?
**A.** 90 nM
